Literature values in patent US9918975B2, “Method for improving dissolution of anticoagulant agent” (Daiichi Sankyo Company, Limited, priority 2010, dated 2018).

Amino acid sequences for entries named in this document (tags omitted). Residues count along the entry.
UniProt P00742, 41-179 partner limits assumed: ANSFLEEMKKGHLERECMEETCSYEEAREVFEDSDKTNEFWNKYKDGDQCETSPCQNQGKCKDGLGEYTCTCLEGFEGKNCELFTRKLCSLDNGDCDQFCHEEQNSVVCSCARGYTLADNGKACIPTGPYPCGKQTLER
UniProt P00742, 235-488 limits assumed: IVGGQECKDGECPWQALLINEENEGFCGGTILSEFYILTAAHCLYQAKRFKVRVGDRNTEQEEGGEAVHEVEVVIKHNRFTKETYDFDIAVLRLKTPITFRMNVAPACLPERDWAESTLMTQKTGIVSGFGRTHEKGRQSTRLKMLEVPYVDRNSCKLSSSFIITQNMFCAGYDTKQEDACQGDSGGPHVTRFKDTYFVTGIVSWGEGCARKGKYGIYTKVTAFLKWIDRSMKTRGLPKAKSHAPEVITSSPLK

Molecular target: activated blood coagulation factor X (Homo sapiens, UniProt P00742)
Details: Patent Documents 1 to 9; cited from earlier work

CN1CCc2nc(C(=O)N[C@@H]3C[C@@H](C(=O)N(C)C)CC[C@@H]3NC(=O)C(=O)Nc3ccc(Cl)cn3)sc2C1 [compound I, N^1-(5-chloropyridin-2-yl)-N^2-((1S,2R,4S)-4-[(dimethylamino)carbonyl]-2-{[(5-methyl-4,5,6,7-tetrahydrothiazolo[5,4-c]pyridin-2-yl)carbonyl]amino}cyclohexyl)ethanediamide]
inhibitory effect on activated blood coagulation factor X: potent inhibitory effect
